# Experimental data taken from PubChem BioAssay AID1766 (National Center for Advancing Translational Sciences (NCATS), 2009).
# Values joined by “and” are separate entries in the source; they are usually repeats but may differ in a detail not shown here. Equal values may be shown once. Only a part is listed here, and it is no random draw. Inconclusive results are not listed. Active and inactive are the calls of the source. Calls follow the shape of the dose curve; as a rule, active = well fitted curve in the direction sought with a large enough effect in the polarisation (not every such curve was filed as active); inconclusive = small, poorly fitted or top-dose-only effect, or effect the other way, or a change in a side signal; inactive = no such curve, though single readings can be large or run the other way; the % refers to the polarisation.
# Assay: qHTS Assay for Inhibitors Targeting the Menin-MLL Interaction in MLL Related Leukemias: Competition With Fluorescein Labeled MLL-derived Peptide; also: % of control where 0% means no effect
# Conditions: Fluorescence polarization, fluorescein-MLL peptide displacement from menin; at 61.4 µM (top of the series)
row,SMILES,FP activity change
1,CN(CCCl)CCCl,inactive: -3.41% and inactive: 5.28%
2,CCC(=O)N(c1ccccc1)C1CCN(CCc2ccccc2)CC1,inactive: 0.535%
